{
  "source": "patent US20250313631A1",
  "about": "(HUMMINGBIRD BIOSCIENCE PTE, published 2025)",
  "binders": {"B1": {"name": "VSTB112 IgG1 (antibody, V domains shown)", "VH": "QVQLVQSGAEVKKPGSSVKVSCKASGGTFSSYAISWVRQAPGQGLEWMGGIIPIFGTANYAQKFQGRVTITADESTSTAYMELSSLRSEDTAVYYCARSSYGWSYEFDYWGQGTLVTVSS", "VL": "DIQMTQSPSSLSASVGDRVTITCRASQSIDTRLNWYQQKPGKAPKLLIYSASSLQSGVPSRFSGSGSGTDFTLTISSLQPEDFATYYCQQSAYNPITFGQGTKVEIKR"}},
  "key": {"[1]": {"molecular_target": "T1, recombinant human VISTA (His-tagged) (human, UniProt Q9H7M9 33-194)", "T1 construct": "bought soluble protein (Sino Biological); also called hVISTA; human VISTA polypeptide", "experiment": "BLI (Octet), 1:1 global fit, His-tagged human VISTA captured"}, "[2]": {"molecular_target": "T2, mouse VISTA expressed on cells (mouse, UniProt Q9D659 33-308)", "T2 construct": "whole, on cells; also called murine VISTA on transfected cells; VISTA on mouse CD11b+ myeloid cells", "T2 sequence (looked up)": "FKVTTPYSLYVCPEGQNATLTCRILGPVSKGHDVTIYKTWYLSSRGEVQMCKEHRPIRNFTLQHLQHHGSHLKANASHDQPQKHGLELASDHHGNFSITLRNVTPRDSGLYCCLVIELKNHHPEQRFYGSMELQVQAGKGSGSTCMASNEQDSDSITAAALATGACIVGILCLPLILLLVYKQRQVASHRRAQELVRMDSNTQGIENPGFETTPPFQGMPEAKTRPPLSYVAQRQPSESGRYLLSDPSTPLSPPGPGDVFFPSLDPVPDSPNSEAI", "experiment": "flow cytometry, HEK293-6E cells overexpressing mouse VISTA, FITC anti-human Fc"}, "human CD47": {"molecular_target": "T3, human CD47 (human, UniProt Q08722 19-139)", "T3 construct": "also called hCD47", "experiment": "BLI (Octet), His-tagged hCD47 on anti-Penta-HIS biosensor, antibody 1500-46.9 nM"}},
  "data": [
    {"binder": "B1", "values": [
      {"measurement": "Kd", "setting": "[1]", "value": "< 1", "unit": "pM"},
      {"measurement": "binding result", "setting": "[2]", "value": "no binding (tested: 1 ug/ml)"},
      {"measurement": "binding result", "setting": "human CD47", "value": "no binding (tested: 1500 nM)"}
    ]}
  ]
}
